Measured values published in ChEMBL document CHEMBL3112390, “Discovery and SAR of 5-aminooctahydrocyclopentapyrrole-3a-carboxamides as potent CCR2 antagonists” (Bioorg Med Chem Lett, 2014).

Sequences of proteins named here, by UniProt entry; tags and fusion partners are left off. A change or cut given only in a name is not applied to a line headed by its entry.
UniProt P41597: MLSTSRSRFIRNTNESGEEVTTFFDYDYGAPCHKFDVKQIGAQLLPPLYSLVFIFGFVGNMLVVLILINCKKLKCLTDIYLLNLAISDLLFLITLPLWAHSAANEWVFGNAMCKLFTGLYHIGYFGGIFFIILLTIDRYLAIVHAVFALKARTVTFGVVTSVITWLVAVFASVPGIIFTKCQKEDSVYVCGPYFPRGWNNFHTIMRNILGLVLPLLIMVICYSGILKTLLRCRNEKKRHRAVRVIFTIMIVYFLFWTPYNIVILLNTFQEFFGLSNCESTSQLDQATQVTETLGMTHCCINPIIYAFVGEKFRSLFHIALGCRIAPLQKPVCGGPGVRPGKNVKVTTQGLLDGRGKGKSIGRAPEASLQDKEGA

Target: C-C chemokine receptor type 2 (Homo sapiens, UniProt P41597)
Experiment: Binding affinity to CCR2 receptor (unknown origin)

IC50 [nM]	Structure (SMILES)
780	COC1COCCC1N[C@@H]1C[C@H]2CNC[C@@]2(C(=O)N2CCc3ncc(C(F)(F)F)cc3C2)C1 (mixture of isomers)
300	COC1COCCC1N[C@@H]1C[C@H]2CN(C)C[C@@]2(C(=O)N2CCc3ncc(C(F)(F)F)cc3C2)C1 (mixture of isomers)
1300	COC1COCCC1N[C@@H]1C[C@H]2CN(c3ncccn3)C[C@@]2(C(=O)N2CCc3ncc(C(F)(F)F)cc3C2)C1 (mixture of isomers)
30	COC1COCCC1N[C@@H]1C[C@H]2CN(C(=O)/C=C/c3ccccc3)C[C@@]2(C(=O)N2CCc3ncc(C(F)(F)F)cc3C2)C1 (mixture of isomers)
